Experimental data as given in US20240116898A1, “NOVEL GLUTAMINYL CYCLASE INHIBITORS AND THE USE THEREOF IN TREATMENT OF VARIOUS DISEASES” (LTD "VALENTA-INTELLEKT", priority 2017, published 2024).

Test system: formalin-induced acute rhinosinusitis in rats
Settings: 0.6 mg/kg daily, day 8

## C[C@@H]1C[C@H]2[C@@H]3CCC4=CC(=O)C=C[C@]4(C)[C@@]3(F)[C@@H](O)C[C@]2(C)[C@@]1(O)C(=O)CO [Dexamethasone]
  Eosinophils in 1 μl of the nasal lavage: 0 ± 0 in 1 μl
  Leukocytes in 1 μl of the nasal lavage: 1735 ± 451*& in 1 μl
  Lymphocytes in 1 μl of the nasal lavage: 0 ± 0 in 1 μl
  Macrophages in 1 μl of the nasal lavage: 68 ± 23& in 1 μl
  Neutrophils in 1 μl of the nasal lavage: 1664 ± 433*& in 1 μl
